Tests used:
Assay in all cases: radiometric filter-binding kinase assay, Kinase HotSpot
Settings in all cases: compound 0.5 µM; ATP 10 µM
[1] = biological target: IRAK1 (human) (UniProt P51617)
[2] = biological target: CDK4 CCND3 (human) (UniProt P30281+P11802)
[3] = biological target: DYRK1A (human) (UniProt Q13627)
[4] = biological target: STK24 (human) (UniProt Q9Y6E0)
[5] = biological target: CDK6 CCND3 (human) (UniProt P30281+Q00534)
[6] = biological target: CDK6 CCND1 (human) (UniProt Q00534+P24385)
[7] = biological target: CDK9 CCNT1 (human) (UniProt P50750+O60563)
[8] = biological target: PRKG2 (human) (UniProt Q13237)
[9] = biological target: CDK9 CCNK (human) (UniProt O75909+P50750)
[10] = biological target: MAP3K7 TAB1 (human) (UniProt O43318+Q15750)
[11] = biological target: CDK7 CCNH MNAT1 (human) (UniProt P50613+P51948+P51946)
[12] = biological target: MELK (human) (UniProt Q14680)
[13] = biological target: CDK4 CCND1 (human) (UniProt P24385+P11802)
[14] = biological target: CSNK1G1 (human) (UniProt Q9HCP0)
[15] = biological target: FYN (human) (UniProt P06241)
[16] = biological target: MAPK9 (human) (UniProt P45984)
[17] = biological target: CSNK1A1 (human) (UniProt P48729)
[18] = biological target: MARK2 (human) (UniProt Q7KZI7)
[19] = biological target: CDK5 CDK5R1 p25 (human) (UniProt Q00535+Q15078)
[20] = biological target: CDK5 CDK5R1 p35 (human) (UniProt Q00535+Q15078)
[21] = biological target: CDK1 CCNB1 (human) (UniProt P06493+P14635)
[22] = biological target: MKNK2 (human) (UniProt Q9HBH9)
[23] = biological target: PDPK1 (human) (UniProt O15530)

Sequences of proteins named here, by UniProt entry; tags and fusion partners are left off. A change or cut given only in a name is not applied to a line headed by its entry.
UniProt P51617, whole entry, looked up: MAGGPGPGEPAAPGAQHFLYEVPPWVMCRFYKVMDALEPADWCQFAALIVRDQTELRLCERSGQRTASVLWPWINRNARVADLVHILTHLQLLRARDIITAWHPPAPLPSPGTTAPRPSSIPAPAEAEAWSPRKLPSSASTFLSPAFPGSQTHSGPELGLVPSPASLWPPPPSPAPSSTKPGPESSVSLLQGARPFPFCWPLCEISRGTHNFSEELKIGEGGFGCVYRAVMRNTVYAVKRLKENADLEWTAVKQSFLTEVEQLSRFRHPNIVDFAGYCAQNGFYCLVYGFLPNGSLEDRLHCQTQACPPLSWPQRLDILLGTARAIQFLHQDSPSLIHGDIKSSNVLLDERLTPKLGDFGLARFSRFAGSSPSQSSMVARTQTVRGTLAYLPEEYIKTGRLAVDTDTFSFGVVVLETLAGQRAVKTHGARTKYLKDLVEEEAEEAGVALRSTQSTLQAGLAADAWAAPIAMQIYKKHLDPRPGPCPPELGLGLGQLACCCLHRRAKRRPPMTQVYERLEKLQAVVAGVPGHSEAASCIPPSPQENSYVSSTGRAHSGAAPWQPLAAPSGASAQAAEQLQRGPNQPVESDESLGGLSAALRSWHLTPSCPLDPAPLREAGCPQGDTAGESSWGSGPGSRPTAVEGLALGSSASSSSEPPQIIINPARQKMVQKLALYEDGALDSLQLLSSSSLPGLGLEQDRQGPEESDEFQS
UniProt P11802: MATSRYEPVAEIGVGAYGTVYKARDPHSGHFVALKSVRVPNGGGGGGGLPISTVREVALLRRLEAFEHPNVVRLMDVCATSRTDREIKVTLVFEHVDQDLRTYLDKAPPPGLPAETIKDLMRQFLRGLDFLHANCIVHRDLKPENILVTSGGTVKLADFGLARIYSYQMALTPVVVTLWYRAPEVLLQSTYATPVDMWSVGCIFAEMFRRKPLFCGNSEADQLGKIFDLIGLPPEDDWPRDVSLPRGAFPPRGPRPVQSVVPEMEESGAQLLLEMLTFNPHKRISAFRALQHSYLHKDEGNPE
UniProt Q9Y6E0: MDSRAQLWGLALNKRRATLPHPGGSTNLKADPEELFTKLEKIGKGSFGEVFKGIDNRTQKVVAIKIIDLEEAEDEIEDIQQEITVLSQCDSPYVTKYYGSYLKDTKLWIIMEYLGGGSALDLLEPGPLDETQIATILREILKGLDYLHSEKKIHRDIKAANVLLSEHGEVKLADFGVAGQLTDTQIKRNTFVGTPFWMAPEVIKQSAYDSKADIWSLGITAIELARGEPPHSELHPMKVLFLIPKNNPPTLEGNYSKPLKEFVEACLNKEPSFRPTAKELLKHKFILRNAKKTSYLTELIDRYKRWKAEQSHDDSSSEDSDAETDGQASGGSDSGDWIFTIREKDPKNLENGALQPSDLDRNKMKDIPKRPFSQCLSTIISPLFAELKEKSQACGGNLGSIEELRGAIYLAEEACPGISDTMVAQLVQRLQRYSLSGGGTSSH
UniProt P24385, whole entry, looked up: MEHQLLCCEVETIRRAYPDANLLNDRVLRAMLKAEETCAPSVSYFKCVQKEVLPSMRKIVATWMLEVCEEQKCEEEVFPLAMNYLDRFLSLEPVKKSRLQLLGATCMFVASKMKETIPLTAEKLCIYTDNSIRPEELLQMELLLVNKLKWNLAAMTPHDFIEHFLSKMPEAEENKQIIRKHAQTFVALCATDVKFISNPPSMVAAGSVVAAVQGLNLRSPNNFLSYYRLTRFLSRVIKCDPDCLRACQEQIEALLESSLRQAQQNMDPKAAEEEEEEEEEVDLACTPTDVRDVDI
UniProt P50750, whole entry, looked up: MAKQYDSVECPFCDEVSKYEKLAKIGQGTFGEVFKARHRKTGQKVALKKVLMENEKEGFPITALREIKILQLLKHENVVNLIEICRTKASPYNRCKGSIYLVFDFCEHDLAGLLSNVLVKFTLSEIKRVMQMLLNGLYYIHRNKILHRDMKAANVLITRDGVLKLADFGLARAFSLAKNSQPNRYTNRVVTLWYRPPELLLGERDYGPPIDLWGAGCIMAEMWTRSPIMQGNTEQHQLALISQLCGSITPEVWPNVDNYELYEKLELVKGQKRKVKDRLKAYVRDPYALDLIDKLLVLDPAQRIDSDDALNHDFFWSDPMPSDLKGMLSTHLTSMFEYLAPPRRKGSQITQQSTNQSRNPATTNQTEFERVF
UniProt Q13237: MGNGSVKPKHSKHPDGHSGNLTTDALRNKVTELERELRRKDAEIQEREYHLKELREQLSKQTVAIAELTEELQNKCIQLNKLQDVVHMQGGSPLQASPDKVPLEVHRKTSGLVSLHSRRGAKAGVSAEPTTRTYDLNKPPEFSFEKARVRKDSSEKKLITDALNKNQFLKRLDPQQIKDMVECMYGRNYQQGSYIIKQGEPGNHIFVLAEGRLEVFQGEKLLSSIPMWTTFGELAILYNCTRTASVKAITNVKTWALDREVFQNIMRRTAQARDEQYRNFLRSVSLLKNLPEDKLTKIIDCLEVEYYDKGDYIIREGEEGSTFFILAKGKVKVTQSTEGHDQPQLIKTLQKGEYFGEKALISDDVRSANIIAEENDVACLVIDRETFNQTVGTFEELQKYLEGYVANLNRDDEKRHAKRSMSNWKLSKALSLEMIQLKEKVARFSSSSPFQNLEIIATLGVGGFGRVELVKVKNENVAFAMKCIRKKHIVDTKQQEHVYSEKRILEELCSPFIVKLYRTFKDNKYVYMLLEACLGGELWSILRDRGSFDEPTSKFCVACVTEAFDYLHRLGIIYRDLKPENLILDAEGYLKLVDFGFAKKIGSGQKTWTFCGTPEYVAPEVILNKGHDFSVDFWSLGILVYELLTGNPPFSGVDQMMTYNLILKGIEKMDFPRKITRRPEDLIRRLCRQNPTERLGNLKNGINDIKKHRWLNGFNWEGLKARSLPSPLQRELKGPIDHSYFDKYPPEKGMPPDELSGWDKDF
UniProt O75909: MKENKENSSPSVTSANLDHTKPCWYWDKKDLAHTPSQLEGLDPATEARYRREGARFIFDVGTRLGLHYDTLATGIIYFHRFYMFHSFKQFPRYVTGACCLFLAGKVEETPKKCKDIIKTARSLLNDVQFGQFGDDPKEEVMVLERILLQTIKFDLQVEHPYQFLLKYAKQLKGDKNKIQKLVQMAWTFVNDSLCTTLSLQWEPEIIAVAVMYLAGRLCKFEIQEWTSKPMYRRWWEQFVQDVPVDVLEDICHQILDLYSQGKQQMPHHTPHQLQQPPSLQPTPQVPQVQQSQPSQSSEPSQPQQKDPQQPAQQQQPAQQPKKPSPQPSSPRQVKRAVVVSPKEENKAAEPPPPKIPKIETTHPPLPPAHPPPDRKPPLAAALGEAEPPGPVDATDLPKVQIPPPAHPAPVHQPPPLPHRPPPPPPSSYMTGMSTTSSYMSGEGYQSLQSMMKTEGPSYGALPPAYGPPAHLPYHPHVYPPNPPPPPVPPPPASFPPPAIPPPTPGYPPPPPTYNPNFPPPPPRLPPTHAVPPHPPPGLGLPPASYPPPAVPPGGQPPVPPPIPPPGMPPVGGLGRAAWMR
UniProt O43318: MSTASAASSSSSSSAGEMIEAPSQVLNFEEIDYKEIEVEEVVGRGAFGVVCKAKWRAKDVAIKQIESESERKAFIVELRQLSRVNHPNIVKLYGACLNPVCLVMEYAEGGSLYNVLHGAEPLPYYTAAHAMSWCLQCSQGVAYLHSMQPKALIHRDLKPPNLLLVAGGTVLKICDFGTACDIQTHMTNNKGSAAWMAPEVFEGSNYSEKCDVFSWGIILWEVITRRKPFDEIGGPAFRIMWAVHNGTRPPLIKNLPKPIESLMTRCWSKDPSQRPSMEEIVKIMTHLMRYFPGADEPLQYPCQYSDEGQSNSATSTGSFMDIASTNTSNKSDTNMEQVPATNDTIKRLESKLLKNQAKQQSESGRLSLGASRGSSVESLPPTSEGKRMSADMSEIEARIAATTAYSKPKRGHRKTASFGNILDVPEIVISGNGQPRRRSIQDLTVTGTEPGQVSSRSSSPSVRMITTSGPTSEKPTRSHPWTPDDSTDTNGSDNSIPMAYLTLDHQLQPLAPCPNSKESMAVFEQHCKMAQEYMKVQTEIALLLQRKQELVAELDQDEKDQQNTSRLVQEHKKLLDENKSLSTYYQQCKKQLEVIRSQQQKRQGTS
UniProt P51948: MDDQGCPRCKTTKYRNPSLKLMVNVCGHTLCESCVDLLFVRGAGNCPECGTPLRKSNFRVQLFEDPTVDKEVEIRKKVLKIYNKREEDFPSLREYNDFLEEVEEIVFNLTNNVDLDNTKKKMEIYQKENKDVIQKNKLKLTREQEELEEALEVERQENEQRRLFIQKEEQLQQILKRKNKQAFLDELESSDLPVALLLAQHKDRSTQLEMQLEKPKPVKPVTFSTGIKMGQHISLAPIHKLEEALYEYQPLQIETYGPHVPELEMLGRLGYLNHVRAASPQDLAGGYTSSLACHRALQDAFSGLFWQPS
UniProt P06241, whole entry, looked up: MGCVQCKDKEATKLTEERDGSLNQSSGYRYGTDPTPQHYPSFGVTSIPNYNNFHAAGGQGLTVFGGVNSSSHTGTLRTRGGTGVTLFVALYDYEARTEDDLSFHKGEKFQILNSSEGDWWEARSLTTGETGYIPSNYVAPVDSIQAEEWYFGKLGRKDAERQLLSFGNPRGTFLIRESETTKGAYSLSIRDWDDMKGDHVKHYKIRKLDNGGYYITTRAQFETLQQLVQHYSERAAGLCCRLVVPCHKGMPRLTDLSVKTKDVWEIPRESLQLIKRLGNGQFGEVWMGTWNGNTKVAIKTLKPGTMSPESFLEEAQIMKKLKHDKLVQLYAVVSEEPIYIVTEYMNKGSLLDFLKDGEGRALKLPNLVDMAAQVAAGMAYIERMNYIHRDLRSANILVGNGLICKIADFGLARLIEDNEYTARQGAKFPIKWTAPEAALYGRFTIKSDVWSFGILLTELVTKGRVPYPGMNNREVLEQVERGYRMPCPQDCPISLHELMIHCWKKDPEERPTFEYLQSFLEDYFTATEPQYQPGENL
UniProt Q00535, whole entry, looked up: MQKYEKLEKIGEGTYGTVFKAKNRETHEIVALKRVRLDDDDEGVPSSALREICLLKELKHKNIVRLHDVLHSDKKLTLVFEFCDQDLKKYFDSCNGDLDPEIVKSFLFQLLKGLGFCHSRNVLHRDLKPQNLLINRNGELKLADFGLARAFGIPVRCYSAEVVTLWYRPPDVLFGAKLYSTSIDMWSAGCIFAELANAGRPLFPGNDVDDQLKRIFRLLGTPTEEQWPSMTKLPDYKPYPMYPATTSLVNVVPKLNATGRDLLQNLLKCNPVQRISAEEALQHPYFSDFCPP
UniProt Q15078: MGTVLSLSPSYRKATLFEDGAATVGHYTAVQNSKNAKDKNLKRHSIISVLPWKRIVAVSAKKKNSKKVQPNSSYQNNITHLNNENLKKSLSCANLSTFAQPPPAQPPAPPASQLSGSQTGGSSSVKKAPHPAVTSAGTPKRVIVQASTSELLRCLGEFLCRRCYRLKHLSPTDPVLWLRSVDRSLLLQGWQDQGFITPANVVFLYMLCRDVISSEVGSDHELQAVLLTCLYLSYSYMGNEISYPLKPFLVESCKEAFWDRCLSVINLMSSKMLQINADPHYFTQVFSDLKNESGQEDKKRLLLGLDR
UniProt P14635, whole entry, looked up: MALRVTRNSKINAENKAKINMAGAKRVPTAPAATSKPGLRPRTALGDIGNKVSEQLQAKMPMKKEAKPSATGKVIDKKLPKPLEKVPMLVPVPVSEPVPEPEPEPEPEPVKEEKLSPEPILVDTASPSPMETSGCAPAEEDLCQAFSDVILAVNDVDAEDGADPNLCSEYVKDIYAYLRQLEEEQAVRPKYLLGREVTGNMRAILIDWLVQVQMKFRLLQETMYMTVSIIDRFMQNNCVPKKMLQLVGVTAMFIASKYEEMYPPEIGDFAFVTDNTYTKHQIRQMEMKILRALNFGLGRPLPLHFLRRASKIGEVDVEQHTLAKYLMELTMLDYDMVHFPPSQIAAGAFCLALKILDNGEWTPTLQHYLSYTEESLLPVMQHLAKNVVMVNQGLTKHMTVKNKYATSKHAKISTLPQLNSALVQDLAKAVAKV
UniProt O15530: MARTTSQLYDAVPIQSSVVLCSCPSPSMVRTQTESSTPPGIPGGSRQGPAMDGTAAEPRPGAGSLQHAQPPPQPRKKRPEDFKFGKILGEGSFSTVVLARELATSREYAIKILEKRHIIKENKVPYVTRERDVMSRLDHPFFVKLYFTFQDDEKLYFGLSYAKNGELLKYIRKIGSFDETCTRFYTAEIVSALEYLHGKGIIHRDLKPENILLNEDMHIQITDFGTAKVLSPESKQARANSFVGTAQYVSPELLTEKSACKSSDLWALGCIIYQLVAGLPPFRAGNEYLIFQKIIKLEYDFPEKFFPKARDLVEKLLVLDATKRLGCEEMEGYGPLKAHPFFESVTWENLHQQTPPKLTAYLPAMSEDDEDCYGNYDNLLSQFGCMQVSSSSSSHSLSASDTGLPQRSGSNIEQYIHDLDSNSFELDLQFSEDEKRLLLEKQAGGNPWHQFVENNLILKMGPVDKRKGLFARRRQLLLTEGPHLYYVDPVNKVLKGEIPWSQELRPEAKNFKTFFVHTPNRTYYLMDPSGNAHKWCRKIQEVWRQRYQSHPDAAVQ

SMILES: O=C1c2ccccc2-[n+]2ccc3c([nH]c4ccccc43)c21
- residual activity [1]: 103%
- residual activity [2]: 76.8%
- residual activity [3]: 105%
- residual activity [4]: 90.4%
- residual activity [5]: 59.8%
- residual activity [6]: 70.1%
- residual activity [7]: 84.2%
- residual activity [8]: 122%
- residual activity [9]: 96%
- residual activity [10]: 96.9%
- residual activity [11]: 114%
- residual activity [12]: 68.5%
- residual activity [13]: 63.4%
- residual activity [14]: 110%
- residual activity [15]: 100%
- residual activity [16]: 91.2%
- residual activity [17]: 118%
- residual activity [18]: 91.5%
- residual activity [19]: 70.3%
- residual activity [20]: 85%
- residual activity [21]: 53.5%
- residual activity [22]: 85%

SMILES: COc1cc(OC)c(/C=C2\C(=O)Nc3ccccc32)c(OC)c1
- residual activity [23]: 96.1%
- residual activity [8]: 108%
- residual activity [12]: 84.2%
- residual activity [14]: 98.9%
- residual activity [16]: 104%
